According to publication PMC10208276, “A Very Long-acting Exatecan and Its Synergism with DNA Damage Response Inhibitors” (Cancer Research Communications, 2023):
Where two headings read alike, the source gives them in different places.

Columns and labels:
[1] = mouse
[2] = single intraperitoneal doses of 10 and 15 μmol/kg

## PEG40kDa-[exatecan]4 (Mod = 4-Cl-C6H4-SO2-) [3A]
37°C, between pH 7.4 and 9.0, hydroxide-catalyzed
  kOH of Exa release: 0.012 h⁻¹
Ave. ± SE of the three pH values
  Calc. t1/2 at pH 7.5, average: Ave. 59 ± 7 (SE) h
Calculated from value observed at pH 7.4
  Calc. t1/2 at pH 7.5: 57 h
Calculated from value observed at pH 8.4
  Calc. t1/2 at pH 7.5: 53 h
Calculated from value observed at pH 9.0
  Calc. t1/2 at pH 7.5: 67 h
pH 5.0, 10 days
  conjugate remaining: 99%
pH 5.1, 37° C, 11 d
  conjugate remaining: >99% remaining at 11 d
pH 7.4, 37° C
  Obsd t1/2: 51.6 h
pH 8.4, 37° C
  Obsd t1/2: 4.87 h
pH 9.0, 37° C
  Obsd t1/2: 1.72 h
[1]
  concentration of released free Exa relative to prodrug 3A, fold lower: ≥ 1,000 fold
[1]; 7.5 μmol/kg conjugate, Intraperitoneal, analyte released Exa
  Released Exa C max/dose: 0.004 ± 0.001 kg/L
[1]; 7.5 μmol/kg, Intraperitoneal
  AUC∞: 1,650 ± 116 μmol/L•hours
  AUC∞/dose: 220 ± 16 kg·h/L
  C0: 193 ± 21 µM
  C0, μmol/L/dose: 25 ± 3 kg/L
  C max/dose: 14.7 ± 1.1 kg/L
  Cmax: 110 ± 4 µM
  t1/2,α: 2.6 ± 0.3 h
  t1/2,β (apparent elimination / circulating half-life): approximately 12 hours
  tmax: 7 h
[1]; 7.5 μmol/kg, Intraperitoneal, from k1 = k3 − kβ, listed as PEG-Exa (3A)
  t1/2 drug release (release of Exa in vivo): 40.8 ± 9.1 h
[1]; 7.5 μmol/kg, Intraperitoneal, listed as PEG-Exa
  t1/2,β (apparent elimination / circulating half-life): 12 h
[1]; 7.5 μmol/kg, Intraperitoneal, listed as PEG-Exa (3A)
  t1/2,β (apparent elimination / circulating half-life): 12.2 ± 0.5 h
[1]; read-out: Released Exa C max, 7.5 μmol/kg conjugate, Intraperitoneal, analyte released Exa
  Cmax: 0.028 ± 0.009 µM
[2]
  weight loss of hosts: without weight loss
